Measured values from ChEMBL document CHEMBL1159120, “2,4-Diamino-5-methyl-6-substituted arylthio-furo[2,3-d]pyrimidines as novel classical and nonclassical antifolates as potential dual thymidylate synthase and dihydrofolate reductase inhibitors” (Bioorg Med Chem, 2010).

Assays:
[1] = target: T1, Bifunctional dihydrofolate reductase-thymidylate synthase (Toxoplasma gondii, UniProt Q07422)
T1 sequence (Q07422 whole entry): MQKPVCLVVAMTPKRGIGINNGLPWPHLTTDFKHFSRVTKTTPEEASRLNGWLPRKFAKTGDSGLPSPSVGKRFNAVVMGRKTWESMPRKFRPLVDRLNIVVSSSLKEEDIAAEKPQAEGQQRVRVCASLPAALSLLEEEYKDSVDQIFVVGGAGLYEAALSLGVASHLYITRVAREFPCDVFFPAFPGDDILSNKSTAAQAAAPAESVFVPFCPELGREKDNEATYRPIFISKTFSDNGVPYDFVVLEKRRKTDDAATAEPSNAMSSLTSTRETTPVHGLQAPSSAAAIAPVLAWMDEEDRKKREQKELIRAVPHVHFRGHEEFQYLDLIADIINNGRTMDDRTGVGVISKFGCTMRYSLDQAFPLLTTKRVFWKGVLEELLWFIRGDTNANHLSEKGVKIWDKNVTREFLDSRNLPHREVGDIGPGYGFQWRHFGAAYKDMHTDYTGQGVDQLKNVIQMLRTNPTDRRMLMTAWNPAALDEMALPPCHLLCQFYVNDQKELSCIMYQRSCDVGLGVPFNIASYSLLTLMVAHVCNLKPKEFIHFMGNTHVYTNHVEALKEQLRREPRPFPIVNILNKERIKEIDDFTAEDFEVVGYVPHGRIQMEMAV

[2] = target: T2, Dihydrofolate reductase (Mycobacterium avium, UniProt O30463)
T2 sequence (O30463 whole entry): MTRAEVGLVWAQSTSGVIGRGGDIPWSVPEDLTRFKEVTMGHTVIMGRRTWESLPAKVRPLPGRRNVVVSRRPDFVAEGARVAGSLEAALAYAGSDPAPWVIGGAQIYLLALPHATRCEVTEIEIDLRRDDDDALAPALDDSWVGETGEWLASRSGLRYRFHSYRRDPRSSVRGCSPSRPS

[3] = target: T3, Dihydrofolate reductase (Rattus norvegicus, UniProt Q920D2)
T3 sequence (Q920D2 whole entry): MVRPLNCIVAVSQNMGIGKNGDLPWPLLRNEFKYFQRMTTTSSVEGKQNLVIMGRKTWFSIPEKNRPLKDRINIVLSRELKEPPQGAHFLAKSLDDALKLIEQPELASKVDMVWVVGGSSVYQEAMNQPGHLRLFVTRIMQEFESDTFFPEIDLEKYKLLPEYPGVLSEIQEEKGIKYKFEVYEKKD

Structure (SMILES) | IC50 [1] [µM] | IC50 [2] [µM] | IC50 [3] [µM]
Cc1c(Sc2c(Cl)cccc2Cl)oc2nc(N)nc(N)c12 | 25.5 | 56.2 | –
COc1ccc(Sc2oc3nc(N)nc(N)c3c2C)cc1 | 69.4 | – | –
COc1ccc(Sc2oc3nc(N)nc(N)c3c2C)cc1OC | 51.7 | – | –
Cc1c(Sc2c(F)c(F)c(C(F)(F)F)c(F)c2F)oc2nc(N)nc(N)c12 | 81.8 | – | –
Cc1cccc(C(C)C)c1Sc1oc2nc(N)nc(N)c2c1C | 16.2 | 23.4 | 24.3
